The values below come from patent US11077120B2, “Prostaglandin receptor EP2 antagonists, derivatives, compositions, and uses related thereto” (Emory University, priority 2014, dated 2021).

Amino acid sequences for entries named in this document (tags omitted). A change or cut given only in a name is not applied to a line headed by its entry.
UniProt P43116: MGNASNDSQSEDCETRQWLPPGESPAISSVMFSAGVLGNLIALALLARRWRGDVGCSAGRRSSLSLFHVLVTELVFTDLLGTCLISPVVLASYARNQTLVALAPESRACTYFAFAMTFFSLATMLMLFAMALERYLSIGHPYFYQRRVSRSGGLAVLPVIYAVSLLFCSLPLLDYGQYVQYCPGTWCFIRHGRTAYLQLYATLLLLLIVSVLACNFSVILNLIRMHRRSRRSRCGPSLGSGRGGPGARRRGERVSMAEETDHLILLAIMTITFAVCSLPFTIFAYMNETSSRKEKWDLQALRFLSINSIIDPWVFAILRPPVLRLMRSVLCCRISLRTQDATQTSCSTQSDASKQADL
UniProt P43119: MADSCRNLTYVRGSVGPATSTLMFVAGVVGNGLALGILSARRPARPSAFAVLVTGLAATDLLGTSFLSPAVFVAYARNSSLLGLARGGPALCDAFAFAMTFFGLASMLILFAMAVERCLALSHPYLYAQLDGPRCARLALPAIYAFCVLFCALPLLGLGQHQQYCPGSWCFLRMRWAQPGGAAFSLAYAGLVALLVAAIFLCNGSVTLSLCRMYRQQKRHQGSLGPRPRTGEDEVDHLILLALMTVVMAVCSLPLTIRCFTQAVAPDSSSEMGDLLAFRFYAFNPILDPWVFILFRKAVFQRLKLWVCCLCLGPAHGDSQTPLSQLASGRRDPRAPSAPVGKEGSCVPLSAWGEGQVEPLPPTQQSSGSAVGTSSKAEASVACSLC

The target in one data set is T1, human EP2 receptors (Homo sapiens, UniProt P43116).
T1 construct: expressed in transfected cells
Kind of data set: cell-based cAMP TR-FRET assay, rightward shift of PGE2 concentration response curve (Schild KB), EP2.

Another data set deals with T2, human DP1 receptors (Homo sapiens, UniProt Q13258).
T2 construct: expressed in transfected cells
T2 sequence (Q13258 1-359): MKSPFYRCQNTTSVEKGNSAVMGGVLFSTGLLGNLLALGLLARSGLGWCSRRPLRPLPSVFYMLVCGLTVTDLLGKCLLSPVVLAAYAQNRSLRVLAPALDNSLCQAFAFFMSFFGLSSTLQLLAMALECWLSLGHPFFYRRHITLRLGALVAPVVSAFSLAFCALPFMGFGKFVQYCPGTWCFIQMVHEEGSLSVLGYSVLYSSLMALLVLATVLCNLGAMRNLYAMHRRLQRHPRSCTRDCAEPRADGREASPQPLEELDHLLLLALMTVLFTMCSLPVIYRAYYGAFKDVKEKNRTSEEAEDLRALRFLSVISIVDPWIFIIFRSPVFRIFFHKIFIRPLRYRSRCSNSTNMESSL
Description: cell-based cAMP TR-FRET assay, DP1 (agonist BW245C). The procedure: The synthesis was carried out starting from commercially available 2-methyl indole or 2-trifluoromethyl indoles (11a-c), which on treatment with bromoacetonitrile provided intermediates (12a-c), which then were subjected to lithium aluminum hydride to reduce cyanide to amines. […] Synthesized derivatives were tested by using a cAMP-derived TR-FRET assay, at single concentration (1 μM) to observe a rightward shift of PGE2 (an EP2 agonist) concentration response curve in a C6G cell line that overexpresses human EP2 receptors.
Intracellular cAMP was measured with a cell-based homogeneous time-resolved fluorescence resonance energy transfer (TR-FRET) method (Cisbio Bioassays). […] Endogenous cAMP produced by cells competes with labeled cAMP for binding to the cAMP antibody and thus reduces the FRET signal. Cells stably expressing human DP1, EP2, EP4, or IP receptors were seeded into 384-well plates in 30 μl complete medium (4,000 cells/well) and grown overnight. The medium was carefully withdrawn and 10 μl Hanks' Buffered Salt Solution (HBSS) (Hyclone) containing 20 μM rolipram was added into the wells to block phosphodiesterases. The cells were incubated at room temperature for 0.5-1 h and then treated with vehicle or test compound for 10 min before addition of increasing concentrations of appropriate agonist: BW245C for DP1, PGE2 for EP2 and EP4, or iloprost for IP. The cells were incubated at room temperature for 40 min, then lysed in 10 μl lysis buffer containing the FRET acceptor cAMP-d2 and 1 min later another 10 μl lysis buffer with anti-cAMP-Cryptate was added. […] The FRET signal was expressed as: F665/F590×10^4.
(In general: Time-resolved FRET reads energy transfer from a long-lived donor to a nearby acceptor.)

For the next data set, the target named is T3, human IP receptors (Homo sapiens, UniProt P43119).
T3 construct: expressed in transfected cells
Kind of data set: cell-based cAMP TR-FRET assay, IP (agonist iloprost). How it is done:
These derivatives were selected for testing against EP4 and IP receptors. Cell lines were created that overexpress EP4 receptors, or IP receptors on C6-glioma cells. A cAMP-derived TR-FRET assay was developed using agonists PGE2 (for EP4) and iloprost (for IP), similar to EP2 assay.
Intracellular cAMP was measured with a cell-based homogeneous time-resolved fluorescence resonance energy transfer (TR-FRET) method (Cisbio Bioassays). […] Endogenous cAMP produced by cells competes with labeled cAMP for binding to the cAMP antibody and thus reduces the FRET signal. Cells stably expressing human DP1, EP2, EP4, or IP receptors were seeded into 384-well plates in 30 μl complete medium (4,000 cells/well) and grown overnight. The medium was carefully withdrawn and 10 μl Hanks' Buffered Salt Solution (HBSS) (Hyclone) containing 20 μM rolipram was added into the wells to block phosphodiesterases. The cells were incubated at room temperature for 0.5-1 h and then treated with vehicle or test compound for 10 min before addition of increasing concentrations of appropriate agonist: BW245C for DP1, PGE2 for EP2 and EP4, or iloprost for IP. The cells were incubated at room temperature for 40 min, then lysed in 10 μl lysis buffer containing the FRET acceptor cAMP-d2 and 1 min later another 10 μl lysis buffer with anti-cAMP-Cryptate was added. After 60-90 min incubation at room temperature, the FRET signal was measured by an Envision 2103 Multilabel Plate Reader (PerkinElmer Life Sciences) with a laser excitation at 337 nm and dual emissions at 665 nm and 590 nm for d2 and Cryptate (50 s delay), respectively. The FRET signal was expressed as: F665/F590×10^4.

A further data set relates to C6-glioma cells. The conditions noted are these: rat.
The conditions of data set [1]: pH 7.4.
The conditions of data set [2]: 1 h.
The conditions of data set [3]: mouse, in vivo.
The nature of data set [4]: aqueous solubility by nephelometry. The conditions noted are these: parents 15a / 15d as stated.

Each structure is given as a SMILES string. ≈ marks a conversion by molar mass, not a printed value. Where two headings read alike, the source gives them in different places.

Take `CCN(CC)c1ccc(C(=O)NCCn2ccc3ccccc32)cc1` [Compound 6l]: the Kb at human EP2 receptors (Table 1, Schild KB from single antagonist concentration 1 μM, average of 2-3 measurements in duplicate, read-out: EP2 KB) was 0.0629 µM.
Turning to `COc1cc(/C=C/C(=O)NCCn2c(C)cc3ccccc32)cc(OC)c1OC` [Compound 15a], the Kb was 0.0345 µM on human DP1 receptors, 0.0024 µM at human EP2 receptors (read-out: EP2 KB), 0.0024 µM at human EP2 receptors (read-out: KB EP2) and 62 µM at human IP receptors.
As for `COc1cc(/C=C/C(=O)NCCn2c(C(F)(F)F)cc3ccccc32)cc(OC)c1OC` [Compound 15d, (E)-N-(2-(2-(Trifluoromethyl)-1H-indol-1-yl)ethyl)-3-(3,4,5-trimethoxyphenyl)acrylamide], in the data set on C6-glioma cells, the CC50 came to 81 µM. Besides, the Kb is 0.166 µM at human DP1 receptors, 0.0178 µM on human EP2 receptors (read-out: EP2 KB), 0.0178 µM on human EP2 receptors (read-out: KB EP2) and 8.45 µM at human IP receptors. The compound also gave a Solubility in data set [1] of 27 µM (≈ 12.1 µg/mL). Moreover, the “% remaining at 60 minutes in mouse liver microsomes” value in data set [2] is 2%. Further, the C-max in data set [3] (ip, 5 mg/kg) is 115 ± 303 ng/mL; in data set [3] (po, 10 mg/kg), 248 ± 61 ng/mL. The “T1/2 (plasma)” value in data set [3] (po, 10 mg/kg) turned out to be 1.8 h.
`Cc1cc2ccccc2n1CCNC(=O)/C=C/c1ccc(OCCO)c(OCCO)c1` [Compound 16a, (E)-3-(3,4-bis(2-hydroxyethoxy)phenyl)-N-(2-(2-methyl-1H-indol-1-yl)ethyl)acrylamide]: the Kb at human IP receptors came out at 1.57 µM.
For the compound `O=C(/C=C/c1ccc(OCCO)c(OCCO)c1)NCCn1c(C(F)(F)F)cc2ccccc21` [Compound 16b], in data set [4], the “fold higher aqueous solubility in comparison to parent compound” value is given as 2.5 fold. Moreover, on human DP1 receptors, the Kb is 2.82 µM and the “SI (DP1/EP2)” value is listed as 10. Moreover, the Kb at human EP2 receptors (read-out: EP2 KB) was 0.26 µM.
With `Cc1[nH]c2ccccc2c1CCNC(=O)/C=C/c1ccc(OCCO)c(OCCO)c1` [Compound 16c, (E)-3-(3,4-bis(2-hydroxyethoxy)phenyl)-N-(2-(2-methyl-1H-indol-3-yl)ethyl)acrylamide], the Kb at human DP1 receptors came out at 7.45 µM; on human EP2 receptors (read-out: KB EP2), 0.0411 µM; on human EP2 receptors (read-out: Schild KB from Schild regression), 0.0471 µM; on human IP receptors, 240 µM.
For `Cc1cc2ccccc2n1CCNC(=O)/C=C/c1ccc(OCCCO)cc1` [Compound 16e], the Kb came to 0.0671 µM on human DP1 receptors and 210 µM at human IP receptors.
As to `COc1cc(/C=C/C(=O)NCCn2c(C)cc3ccccc32)cc(OC)c1OCCN(C)C` [Compound 16k], on human DP1 receptors, the Kb came out at 0.752 µM and the “SI (DP1/EP2)” value is on record as 8.9. Also, the Kb on human EP2 receptors (read-out: EP2 KB) was determined as 0.0845 µM.
With `Cc1cc2ccccc2n1CCNC(=O)/C=C/c1ccc(OCCCN(C)C)cc1` [Compound 16l], at human DP1 receptors, the Kb amounted to 0.283 µM and the “SI (DP1/EP2)” value was determined as 3.8. Besides, the Kb on human EP2 receptors (read-out: EP2 KB) was found to be 0.0746 µM.
With `Cc1cc2ccccc2n1CCNC(=O)/C=C/c1ccc(OCCN(C)C)cc1` [Compound 16m], at human DP1 receptors, the Kb worked out at 0.265 µM and the “SI (DP1/EP2)” value turned out to be 2. The Kb on human EP2 receptors (read-out: EP2 KB) is 0.137 µM.

The CC50 is the concentration giving 50% cytotoxicity. A word on the Solubility: it is the dissolved amount per volume that the medium holds.
